Results published in article PMC10781691, “Vertical pathway inhibition of receptor tyrosine kinases and BAD with synergistic efficacy in triple negative breast cancer” (NPJ Precision Oncology, 2024).

What was measured:
MDA-MB-231 cells = assay: Cambridge cancer compound library screen in combination with NCK; assay type: cell-based, human; conditions: compound at IC25 with NCK 0.1, 1, 10 μM, 72 h, AlamarBlue
Procedure: Fig. 5 Tyrosine kinase inhibitors (TKIs) identified as the most synergistic compounds in combination with NCK to reduce MDA-MB-231 cell survival. a Heatmap plot depicts cell viability of MDA-MB-231 cells post-treatment as % Fraction affected (Fa) (Scale: Green to Red). Fa was calculated as 100 - cell viability (%). b Fold change (FC) of cell viability after treatments (compound X versus compound X + 10 μM NCK) and Fa of compound X alone were plotted. Compounds were marked in different colors, each representing the pathway targeted by the compound. Compounds with average CI < 1 when co-treated with NCK are shown. CI was calculated using the bliss independence method (CI= (EA + EB-EAEB)/EAB), where CI < 1 denotes synergy. c Top pathways and targets synergizing with NCK are plotted. d Cell viability of MDA-MB-231 cells after treatment with the highly ranked synergistic TKIs (at their respective IC25) with/without 10 μM NCK (from drug screening assay).
The Cambridge Cancer Compound Library (L2300) was purchased from Selleckchem (Houston, TX, USA) and the detailed information of compounds are listed in Supplementary Fig. 11A. […] After 72-hours of treatment, cell viability was determined with AlamarBlue reagent and fluorescence was measured using a Tecan microplate reader, as previously described. […]

MDA-MB-231 xenografts = assay: Orthotopic xenograft, combination study; assay type: in vivo; conditions: Balb/c-nude mice, day 22; NCK 20 mg/kg, OSI 50 mg/kg, CRI 50 mg/kg
Procedure: In vivo bioluminescent imaging was performed to determine the incidence and metastatic burden of luciferase-labeled 4T1 cells. Mice were injected i.p. with 10 mg/ml of D-luciferin (Gold Biotechnology, MO, USA) and imaged using a PerkinElmer IVIS Spectrum system. PDX were generated as previously described by transplanting fresh fragments orthotopically into 8-week-old female nonobese diabetic (NOD)/severe combined immunodeficient (SCID) mice (Beijing Vital River Laboratory Animal Technology Co., Beijing, China) (P1, passage 1)[40]. The P1 xenografts were then fragmented, digested into single-cell suspension and implanted into mammary fat pad (100 μL PBS containing growth factor reduced 50% Matrigel) of NOD/SCID mice. […] Animal body weight and xenograft size were measured daily using an electronic balance and a digital caliper, respectively. Xenograft volume (mm^3) was calculated by using the formula: 0.52 × length × [width]^2. Complete response (CR) was achieved if the average xenograft volume for the treatment group was unable to be determined for two or more consecutive measurements. […] IHC analysis of xenograft histology sections and quantitative polymerase chain reaction (qPCR) were performed as previously described. […]

Row | SMILES | synergy with NCK in compound library screen (CI, Bliss independence) (MDA-MB-231 cells) | Relative Kidney Weight (MDA-MB-231 xenografts)
1 | C[C@@H](Oc1cc(-c2cnn(C3CCNCC3)c2)cnc1N)c1c(Cl)ccc(F)c1Cl [Crizotinib] | low CI (high synergy) | 
2 | O=C(Nc1ccc(OC(F)(F)F)cc1)c1sccc1NCc1ccnc2ccccc12 [OSI-930] |  | 1.63±0.16%
